Bioassay records (PubChem)
In the library only some 1.2% were active in any assay of this set; here they are far more common.
miR122 inh: miR-122 Renilla sensor signal increase in Huh7, primary screen, miR-122 inhibitor project, cell-based, single point, plate reader; Huh7 miR-122 Renilla luciferase sensor, 48 h; neutral wells = 0, positive control = 100; activation (reporter increase), % at 12.5 µM; actives 0.3% (n = 340,000); AID 602342, 2012;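 active = mean replicate activation score at least 90 and every replicate individually at or above 90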;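 also: higher luciferase means less miR-122 activity so hits act as miR-122 inhibitors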
Cneo AK release: Cryptococcus neoformans cell lysis inducers, primary screen, AK release luminescence, single concentration. C. neoformans lysis, adenylate kinase release luminescence, 4 h; normalised: neutral wells 0, clomiphene wells 100. lysis activity, % at 15 µM. actives 0.2% (n = 360,000). AID 651654, 2012;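 active = mean lysis activity across replicates of at least 80%, whatever share of replicates individually reach that level; inactive = mean lysis activity below 80%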
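Material – Cryptococcus neoformans yeast cells · Quantity – 5 × 10^6 yeast cells/mL · Buffer or medium – YPD medium · Compound – single dose · Timing – 4 h static compound exposure, 37 °C, read 1 h post-reagent · Signal – adenylate kinase release luminescence · Read-out basis – lysis from increased AK signal · Benchmarks – Clomiphene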
UUG fidelity: alters start codon recognition fidelity in yeast. S. cerevisiae UUG-firefly luciferase reporter, luminescence/redox ratio. 350,000 tested, 0.13% active. activity score, % at 18.7 µM. AID 602363;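 active means replicate mean at a twofold rise or more, about +100% in these data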;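 further: firefly luciferase made from a UUG start codon reports start codon fidelity; reporter light over untreated wells divided by growth signal over untreated wells; some hits fall short of that in this replicate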
C2C12 statin: suppressors of statin myotoxicity in C2C12 myotubes, primary screen, cell-based, single point, plate reader; C2C12 myotubes + simvastatin, ATP luminescence, 48 h; scaled: DMSO 0, geranylgeraniol control 100; rescue of ATP level, % at 7.49 µM; actives 0.78% (n = 330,000);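 active = mean ATP rescue above about 67%, or every replicate alone reaching that limit, limit read from the data, passing the limit was not always enough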;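 also: myotubes were challenged with 10 µM simvastatin during compound exposure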
Numbers without * were called inactive; x = not tested or not shown; ! = repeats disagree; [ ] = another dose, or the depositor's remark.

Under each structure – miR122 inh	Cneo AK release	UUG fidelity	C2C12 statin
C[C@H](CO)N1C[C@H](C)[C@@H](CN(C)Cc2ccccc2)Oc2c(NC(=O)C3CC3)cccc2C1=O
  90.7*!	-4.6	-1.4	6.7
C[C@@H]1CN([C@H](C)CO)C(=O)c2cccc(NC(=O)C3CC3)c2O[C@H]1CN(C)Cc1ccc(C(F)(F)F)cc1
  106.4*[16.7 µM]	10.7	-9.9	37.6
C[C@@H]1CN([C@H](C)CO)C(=O)c2cccc(NC(=O)Nc3ccc(F)cc3)c2O[C@H]1CN(C)Cc1ccc(C(F)(F)F)cc1
  165.1*[16.7 µM]	0.6	5.8	38.9
C[C@@H]1CN([C@H](C)CO)C(=O)c2cccc(NC(=O)C3CC3)c2O[C@@H]1CN(C)Cc1ccccc1
  -4.5[16.7 µM]	-2.9	1.0	-5.5
C[C@H](CO)N1C[C@H](C)[C@@H](CN(C)Cc2ccc(C(F)(F)F)cc2)Oc2c(NC(=O)Nc3ccc(F)cc3)cccc2C1=O
  84.9[16.7 µM]	-2.5	1.8	-1.8
CC(=O)N(C)C[C@@H]1Oc2cc(C#Cc3ccccn3)ccc2S(=O)(=O)N([C@@H](C)CO)C[C@H]1C
  9.4[16.7 µM]	1.9	11.9	22.6
Cc1noc(C)c1S(=O)(=O)N(C)C[C@@H]1OCCCC[C@H](C)Oc2ccc(NC(=O)C3CCCCC3)cc2C(=O)N([C@@H](C)CO)C[C@H]1C
  1.1[16.7 µM]	1.0	1.3	-26.0
C[C@H]1CN([C@@H](C)CO)S(=O)(=O)c2ccc(C#CC3(O)CCCC3)cc2O[C@@H]1CN(C)C(=O)c1ccccc1
  12.9[16.7 µM]	-10.3	3.6	-8.4
CNC(=O)C[C@@H]1CC[C@H]2[C@@H](COC[C@H](O)CN2Cc2ccc(C(F)(F)F)cc2)O1
  -7.1[16.7 µM]	-1.0	x	-6.3
Cc1noc(C)c1NC(=O)N(C)C[C@H]1OCCCC[C@H](C)Oc2ccc(NC(=O)NC(C)C)cc2C(=O)N([C@@H](C)CO)C[C@@H]1C
  78.3[16.7 µM]	89.8*	21.5	x

Looked up above.
Result for C[C@H](CO)N1C[C@H](C)[C@@H](CN(C)Cc2ccccc2)Oc2c(NC(=O)C3CC3)cccc2C1=O under UUG fidelity: -1.4
Result for C[C@H](CO)N1C[C@H](C)[C@@H](CN(C)Cc2ccc(C(F)(F)F)cc2)Oc2c(NC(=O)Nc3ccc(F)cc3)cccc2C1=O under miR122 inh: 84.9[16.7 µM]
Result for Cc1noc(C)c1NC(=O)N(C)C[C@H]1OCCCC[C@H](C)Oc2ccc(NC(=O)NC(C)C)cc2C(=O)N([C@@H](C)CO)C[C@@H]1C under UUG fidelity: 21.5
Result for C[C@@H]1CN([C@H](C)CO)C(=O)c2cccc(NC(=O)Nc3ccc(F)cc3)c2O[C@H]1CN(C)Cc1ccc(C(F)(F)F)cc1 under Cneo AK release: 0.6
Result for C[C@H]1CN([C@@H](C)CO)S(=O)(=O)c2ccc(C#CC3(O)CCCC3)cc2O[C@@H]1CN(C)C(=O)c1ccccc1 under C2C12 statin: -8.4

Continuation.
Under each structure – miR122 inh	Cneo AK release	UUG fidelity	C2C12 statin
Cc1noc(C)c1NC(=O)N(C)C[C@H]1OCCCC[C@@H](C)Oc2ccc(NC(=O)NC(C)C)cc2C(=O)N([C@H](C)CO)C[C@H]1C
  11.7[16.7 µM]	100.3*	42.9	x
COc1cccc(NC(=O)N[C@H]2CC[C@H](CC(=O)Nc3ccc(-c4ccccc4)cc3)O[C@@H]2CO)c1
  -31.4[16.7 µM]	0.0	-13.2	21.3
O=C(C[C@H]1CC[C@H]2[C@@H](COC[C@H](O)CN2Cc2ccc(Cl)cc2)O1)NCc1cccc(F)c1
  1.3[16.7 µM]	3.4	x	14.2
O=C(CN1C(=O)CSc2ccccc21)Nc1ccccc1C(=O)N1CCOCC1
  3.3	-2.8	-12.5	90.2*
Cc1ccccc1NC(=O)CN1C(=O)CSc2ccccc21
  -6.1	7.5	-4.3	7.7
NC(=O)CC[C@@H]1NC(=O)[C@H](CO)NC(=O)c2cc([N+](=O)[O-])cc(I)c2OCC[C@@H](C(N)=O)NC1=O
  -1.2	-1.1	-7.5	106.3*
COc1ccccc1S(=O)(=O)N[C@H]1C=C[C@H](CC(=O)N2CCOCC2)O[C@H]1CO
  x	52.9	-11.6	2.1
CN(C)C1=NC[C@H](Cc2ccccc2)N1CC1CCCCCC1
  -0.5	0.6	-9.7	96.8*
CN(C)C1=NC[C@H](Cc2ccccc2)N1CCC1CCCC1
  0.1	-1.1	0.1	-55.3
O=C(CSc1nnc(-c2cc3ccccc3cc2O)n1Cc1ccco1)c1ccc(F)cc1
  231.5*	-1.0	-24.3	27.7
Cc1occc1-c1nnc(SCC(=O)c2ccc(F)cc2)n1Cc1ccco1
  -9.4	-0.1	-14.9	-1.8
Cc1ccc(OCc2nnc(SCC(=O)c3ccccc3)n2Cc2ccco2)cc1
  7.3	0.4	-20.4	76.9*
O=C(NC1CCCC1)N1CCCCN2[C@H](CO)[C@H](c3ccc(-c4cncnc4)cc3)[C@@H]2C1
  7.4[16.7 µM]	103.2*	10.8	x
C/C=C/c1ccc([C@@H]2[C@@H](CO)N3CCCCN(C(=O)Nc4ccc(OC)cc4)C[C@H]23)cc1
  5.2[16.7 µM]	102.4*	20.3	x
CCC(CC)C(=O)Nc1cc(C)cc(C)c1
  3.1	2.5	-17.7	12.6
C/C(=C\C(=O)C(F)(F)F)Nc1cc(C)cc(C)c1
  -4.7	3.6	-14.0	139.0*
C[C@@H]1CN([C@H](C)CO)S(=O)(=O)c2ccc(C#Cc3ccccc3F)cc2O[C@H]1CN(C)C
  2.6[16.7 µM]	7.0	-4.9	-25.9
O=S(=O)(NC[C@@H]1[C@@H](c2ccccc2)[C@H](CO)N1CC1CC1)c1ccccc1
  42.9[16.7 µM]	107.2*	19.6	7.2
O=S(=O)(NCC1CCN(c2ccc(S(=O)(=O)N3CCOCC3)cc2)CC1)c1ccccc1
  x	3.0	-0.6	3.3
O=S(=O)(NCC1CCN(S(=O)(=O)c2ccccc2)CC1)c1ccccc1
  27.7	-1.4	2.6	136.5*

Next section, overlapping the part above by two compounds.
Under each structure – miR122 inh	Cneo AK release	UUG fidelity	C2C12 statin
O=S(=O)(NCC1CCN(c2ccc(S(=O)(=O)N3CCOCC3)cc2)CC1)c1ccccc1
  x	3.0	-0.6	3.3
O=S(=O)(NCC1CCN(S(=O)(=O)c2ccccc2)CC1)c1ccccc1
  27.7	-1.4	2.6	136.5*
C[C@H]1CN([C@@H](C)CO)C(=O)c2cccc(NC(=O)c3cnccn3)c2O[C@H]1CN(C)Cc1ccc(Cl)c(Cl)c1
  35.2[16.7 µM]	-3.8	6.0	9.7
CCNC(=O)C[C@H]1CC[C@H]2[C@H](COc3ccc(NC(=O)c4cccs4)cc3C(=O)N2C)O1
  3.1[16.7 µM]	-1.9	-11.6	-1.0
C=CCn1c(=O)c2c(nc3n2CC(C)CN3c2cccc(OC)c2)n(C)c1=O (centres undefined)
  1.3	-1.8	-6.0	120.1*
C=CCn1c(=O)c2c(nc3n2CC(C)CN3Cc2ccccc2)n(C)c1=O (centres undefined)
  -10.8	-1.2	-7.0	5.7
CCCCOc1ccc(CSC(CC(=O)O)C(=O)O)cc1 (centres undefined)
  0.4	0.4	-8.4	x
CCOc1ccc(CSC(CC(=O)O)C(=O)O)cc1 (centres undefined)
  -7.3	-6.6	-0.3	102.6*
COc1ccc(C2CC(C(F)(F)F)n3nc(C(=O)O)c(Cl)c3N2)cc1OC (centres undefined)
  -3.1	0.9	335.2*	-2.3
C[C@@H]1CCCCO[C@@H](CN(C)S(=O)(=O)c2ccccc2)[C@H](C)CN([C@@H](C)CO)C(=O)c2cc(NC(=O)Nc3cccc4ccccc34)ccc2O1
  7.9[16.7 µM]	2.3	-28.3	x
CCOC(=O)CSc1nc2ccccc2c(=O)n1CC1CCC(C(=O)NCc2ccco2)CC1 (centres undefined)
  137.7*	x	20.8	0.4
COCCn1c(C)cc(C(=O)COC(=O)c2cncc(Br)c2)c1C
  -4.8	1.4	8.5	97.7*
Cc1c(Cl)cccc1NC(=O)CCCn1cnc([N+](=O)[O-])n1
  251.2*	-1.1	-2.2	11.5
C[C@@H]1CCCCO[C@@H](CN(C)C(=O)C2CCCCC2)[C@@H](C)CN([C@H](C)CO)C(=O)c2cc(NC(=O)Nc3ccc(C(F)(F)F)cc3)ccc2O1
  3.9[16.7 µM]	1.5	-14.9	x
C[C@@H]1CN([C@@H](C)CO)C(=O)c2cc(NC(=O)c3ccncc3)ccc2O[C@@H]1CN(C)Cc1ccc(Cl)c(Cl)c1
  3.0[16.7 µM]	-2.0	x	-9.1
CCS(CC)=NS(=O)(=O)c1ccc(NC(C)=O)cc1
  -7.2	122.6*	-15.6	-0.4
